# Reference: patent US12084431B2, “Pharmaceutical salts of pyrimidine derivatives and method of treating disorders” (ARIAD Pharmaceuticals, Inc., priority 2018, dated 2024)
# Legend:
# [1] = Stability stress testing (ambient light, 40° C./75% RH, 80° C., 7 days; XRPD and HPLC purity); format: physicochemical; settings: HPLC purity after 7 days, open vial
# Description: Approximately 5 mg of the appropriate samples were placed into 2 mL clear glass vials and the vials were all stored open under the conditions of ambient light, 40° C./75% RH, and 80° C. for 7 days, respectively. The ambient light sample was left open on the bench at room temperature. The 80° C. sample was placed open into an 80° C. oven.
# [2] = Thermodynamic aqueous solubility studies (de-ionized water, 24 h, HPLC concentration, filtrate pH, XRPD of solid)
substance,measurement,setting,value
isopropyl 2-((5-acrylamido-4-((2-(dimethylamino)ethyl) (methyl)amino)-2-methoxyphenyl)amino)-4-(1-methyl-1H-indol-3-yl)pyrimidine-5-carboxylate hippurate,"Purity, 40° C./75% RH",[1],99.6
same,Solubility in Water,"[2]; de-ionized water (pH 6.97), slurry shaken at ambient temperature for 24 h, filtrate by HPLC, salts of Compound (A)",100 µg/mL
same,pH at Saturation,"[2]; pH of filtrate after 24 h slurry in de-ionized water (pH 6.97), ambient temperature",5.61
